Molecular target: T1, human recombinant Keap1 (Homo sapiens, UniProt Q14145)
T1 construct: purchased BPS bioscience, San Diego, CA
Test: fluorescence polarization competitive inhibition screening assay (Keap1/Nrf2 disruption)
Assay type: binding
Conditions: 0.001 to 1000 μM; FIG. 24

Protein sequences, listed by entry. Tags and fused reporters are not part of them.
UniProt Q14145, whole entry: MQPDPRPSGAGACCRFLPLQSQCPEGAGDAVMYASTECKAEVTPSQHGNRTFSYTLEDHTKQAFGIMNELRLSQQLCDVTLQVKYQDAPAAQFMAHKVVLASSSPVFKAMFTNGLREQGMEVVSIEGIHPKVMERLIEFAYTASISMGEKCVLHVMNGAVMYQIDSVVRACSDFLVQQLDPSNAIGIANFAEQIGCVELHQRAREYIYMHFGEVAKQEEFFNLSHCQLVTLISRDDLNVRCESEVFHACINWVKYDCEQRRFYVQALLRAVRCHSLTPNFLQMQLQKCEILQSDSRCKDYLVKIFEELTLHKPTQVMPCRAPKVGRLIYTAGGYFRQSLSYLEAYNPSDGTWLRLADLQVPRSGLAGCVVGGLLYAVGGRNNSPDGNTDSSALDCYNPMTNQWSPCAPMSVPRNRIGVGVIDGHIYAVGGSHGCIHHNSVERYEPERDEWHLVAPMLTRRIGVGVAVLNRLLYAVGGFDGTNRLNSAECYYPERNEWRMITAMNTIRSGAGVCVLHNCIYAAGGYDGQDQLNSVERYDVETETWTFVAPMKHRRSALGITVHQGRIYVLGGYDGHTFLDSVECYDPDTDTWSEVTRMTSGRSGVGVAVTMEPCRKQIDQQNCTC

## ScrambleR PLP: scrambleRRRR polynorbornene dicarboxyimide-based brush polymer comprising SEQ ID NO: 146 (DELEPLTGFRRRR) peptide monomer, Example 14
  inhibition of the binding of Nrf2-peptide SEQ ID: 1 to Keap1 protein: did not inhibit

## Full Scramble PLP: full scramble polynorbornene dicarboxyimide-based brush polymer comprising SEQ ID NO: 143 (DERLERPLTRGFR) peptide monomer, Example 13 (polynorbornene brush polymer)
  inhibition of the binding of Nrf2-peptide SEQ ID: 1 to Keap1 protein: did not inhibit

Source: patent US20240189385A1, “KEAP1/NRF2 PROTEIN-LIKE POLYMERS” (Northwestern University, priority 2021, published 2024)
